Experimental data as given in patent US4672068A, “Antihypertensive 1,4-dihydropyridines having a conjugated ester” (Fujirebio Kabushiki Kaisha, priority 1984, dated 1987).

Assay: in vivo
Settings: mouse, iv
Protocol: Acute toxicity of several derivatives was tested with male ddy mice weighed 15-30 grams by the up and down method. Each derivative was dissolved in 1.5% PVP/ethanol solution, and diluted with a saline solution. Such derivative solution was injected into the caudal vein, and the acute toxicity was determined.

COC(=O)C1=C(C)NC(C)=C(C(=O)OC/C=C/c2ccccc2)C1c1cccc([N+](=O)[O-])c1 (stereo not drawn) [Example 1, cinnamyl methyl 4-(3-nitrophenyl)-2,6-dimethyl-1,4-dihydropyridine-3,5-dicarboxylate (trans)]
LD50: > 150 mg/kg

COC(=O)C1=C(C)NC(C)=C(C(=O)OC/C=C\c2ccccc2)C1c1cccc([N+](=O)[O-])c1 (stereo not drawn) [Example 56, Methyl (Z)-3-phenyl-2-propenyl 4-(3-nitrophenyl)-2,6-dimethyl-1,4-dihydropyridine-3,5-dicarboxylate (cis)]
LD50: > 150 mg/kg
